Data on 1 molecule can be found in publication PMC4980839 (Archiv der Pharmazie, 2010).

Protein sequences, listed by entry. Tags and fused reporters are not part of them. Lines headed by an entry give the natural chain unless they say otherwise; changes in a name come on top.
UniProt Q07343: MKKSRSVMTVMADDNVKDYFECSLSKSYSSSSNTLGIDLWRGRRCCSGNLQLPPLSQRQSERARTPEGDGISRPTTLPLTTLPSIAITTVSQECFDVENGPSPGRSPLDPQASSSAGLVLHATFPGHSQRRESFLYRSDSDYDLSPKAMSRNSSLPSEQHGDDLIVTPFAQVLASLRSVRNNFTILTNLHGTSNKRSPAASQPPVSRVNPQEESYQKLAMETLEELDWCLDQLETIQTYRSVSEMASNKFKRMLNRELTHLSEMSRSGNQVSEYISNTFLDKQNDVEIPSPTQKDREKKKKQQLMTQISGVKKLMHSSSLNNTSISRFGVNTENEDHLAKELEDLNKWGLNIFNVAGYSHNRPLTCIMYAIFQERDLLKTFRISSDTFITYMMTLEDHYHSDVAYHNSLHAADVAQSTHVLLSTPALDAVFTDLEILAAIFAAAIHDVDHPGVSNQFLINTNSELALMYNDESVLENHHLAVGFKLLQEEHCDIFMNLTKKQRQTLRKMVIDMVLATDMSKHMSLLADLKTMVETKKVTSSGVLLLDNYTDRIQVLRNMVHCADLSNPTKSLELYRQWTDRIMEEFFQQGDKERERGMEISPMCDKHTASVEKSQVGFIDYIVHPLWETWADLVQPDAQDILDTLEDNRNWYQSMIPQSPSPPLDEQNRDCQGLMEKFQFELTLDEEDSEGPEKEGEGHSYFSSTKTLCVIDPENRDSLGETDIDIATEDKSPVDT

The structures appear in SMILES notation.

This assay concerns the target PDE4B (Homo sapiens, UniProt Q07343). Nature of the assay: PDE4B inhibition. Format: biochemical.

In turn, `CN1CC(=O)N2[C@H](c3ccc4c(c3)OCO4)c3[nH]c4ccccc4c3C[C@@H]2C1=O` [Tadalafil, reference compound] returned an IC50 greater than 50 µM.

The term IC50 denotes the midpoint of a concentration-inhibition curve. Read a low IC50 as higher potency.
